ChEMBL document CHEMBL1157008, “Discovery of 2-{4-[(3S)-piperidin-3-yl]phenyl}-2H-indazole-7-carboxamide (MK-4827): a novel oral poly(ADP-ribose)polymerase (PARP) inhibitor efficacious in BRCA-1 and -2 mutant tumors” (J Med Chem, 2009)

The chains behind the UniProt entries cited, without tags or fusion partners. Where a name states a change or a piece, a line headed by the entry shows the natural chain unless it says otherwise.
UniProt Q9UKK3: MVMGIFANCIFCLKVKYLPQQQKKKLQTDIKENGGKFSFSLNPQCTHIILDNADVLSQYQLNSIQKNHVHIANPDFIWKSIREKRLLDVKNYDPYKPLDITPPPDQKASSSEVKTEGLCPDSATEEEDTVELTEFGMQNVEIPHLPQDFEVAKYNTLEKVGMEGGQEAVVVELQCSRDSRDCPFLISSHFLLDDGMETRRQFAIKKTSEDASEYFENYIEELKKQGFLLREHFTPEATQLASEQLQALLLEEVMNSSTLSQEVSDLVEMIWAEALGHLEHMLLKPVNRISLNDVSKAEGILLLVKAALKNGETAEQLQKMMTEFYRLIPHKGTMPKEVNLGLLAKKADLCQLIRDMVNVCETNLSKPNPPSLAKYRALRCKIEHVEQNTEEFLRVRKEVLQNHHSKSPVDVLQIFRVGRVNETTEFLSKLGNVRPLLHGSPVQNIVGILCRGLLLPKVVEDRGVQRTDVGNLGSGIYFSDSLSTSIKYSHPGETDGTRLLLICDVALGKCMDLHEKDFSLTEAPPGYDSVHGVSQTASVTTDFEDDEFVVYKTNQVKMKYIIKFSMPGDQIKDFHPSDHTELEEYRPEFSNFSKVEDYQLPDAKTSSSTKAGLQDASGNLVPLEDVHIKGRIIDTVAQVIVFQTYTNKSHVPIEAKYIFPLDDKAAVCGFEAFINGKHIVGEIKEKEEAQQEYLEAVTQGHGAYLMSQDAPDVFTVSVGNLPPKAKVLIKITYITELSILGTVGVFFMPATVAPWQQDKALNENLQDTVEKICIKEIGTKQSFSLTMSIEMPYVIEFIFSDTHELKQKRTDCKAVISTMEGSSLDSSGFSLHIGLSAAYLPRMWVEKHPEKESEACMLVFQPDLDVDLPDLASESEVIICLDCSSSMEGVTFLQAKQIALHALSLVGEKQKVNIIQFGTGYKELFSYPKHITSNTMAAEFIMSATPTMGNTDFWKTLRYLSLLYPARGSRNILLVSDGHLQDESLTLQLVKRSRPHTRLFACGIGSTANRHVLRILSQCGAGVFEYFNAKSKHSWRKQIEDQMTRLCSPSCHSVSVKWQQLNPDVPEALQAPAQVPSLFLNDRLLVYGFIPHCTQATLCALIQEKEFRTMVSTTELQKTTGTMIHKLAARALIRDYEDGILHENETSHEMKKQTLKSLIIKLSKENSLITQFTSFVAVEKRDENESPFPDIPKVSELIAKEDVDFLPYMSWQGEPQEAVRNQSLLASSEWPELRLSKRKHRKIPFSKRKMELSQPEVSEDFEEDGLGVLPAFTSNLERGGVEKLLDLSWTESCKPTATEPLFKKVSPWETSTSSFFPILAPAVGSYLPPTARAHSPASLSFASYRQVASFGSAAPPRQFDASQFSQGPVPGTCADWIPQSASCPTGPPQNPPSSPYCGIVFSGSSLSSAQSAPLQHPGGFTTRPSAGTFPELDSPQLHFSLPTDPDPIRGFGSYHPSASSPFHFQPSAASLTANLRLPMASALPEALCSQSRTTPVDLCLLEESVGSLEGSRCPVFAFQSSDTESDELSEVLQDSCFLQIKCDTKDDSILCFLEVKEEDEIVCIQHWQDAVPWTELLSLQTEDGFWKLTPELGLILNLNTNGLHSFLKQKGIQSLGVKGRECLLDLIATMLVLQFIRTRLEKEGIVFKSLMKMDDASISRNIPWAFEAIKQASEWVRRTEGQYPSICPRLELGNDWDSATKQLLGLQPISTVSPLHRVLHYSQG

Legend:
[1] = target: T1, Poly [ADP-ribose] polymerase tankyrase-1 (Homo sapiens, UniProt O95271)
T1 sequence (O95271 whole entry): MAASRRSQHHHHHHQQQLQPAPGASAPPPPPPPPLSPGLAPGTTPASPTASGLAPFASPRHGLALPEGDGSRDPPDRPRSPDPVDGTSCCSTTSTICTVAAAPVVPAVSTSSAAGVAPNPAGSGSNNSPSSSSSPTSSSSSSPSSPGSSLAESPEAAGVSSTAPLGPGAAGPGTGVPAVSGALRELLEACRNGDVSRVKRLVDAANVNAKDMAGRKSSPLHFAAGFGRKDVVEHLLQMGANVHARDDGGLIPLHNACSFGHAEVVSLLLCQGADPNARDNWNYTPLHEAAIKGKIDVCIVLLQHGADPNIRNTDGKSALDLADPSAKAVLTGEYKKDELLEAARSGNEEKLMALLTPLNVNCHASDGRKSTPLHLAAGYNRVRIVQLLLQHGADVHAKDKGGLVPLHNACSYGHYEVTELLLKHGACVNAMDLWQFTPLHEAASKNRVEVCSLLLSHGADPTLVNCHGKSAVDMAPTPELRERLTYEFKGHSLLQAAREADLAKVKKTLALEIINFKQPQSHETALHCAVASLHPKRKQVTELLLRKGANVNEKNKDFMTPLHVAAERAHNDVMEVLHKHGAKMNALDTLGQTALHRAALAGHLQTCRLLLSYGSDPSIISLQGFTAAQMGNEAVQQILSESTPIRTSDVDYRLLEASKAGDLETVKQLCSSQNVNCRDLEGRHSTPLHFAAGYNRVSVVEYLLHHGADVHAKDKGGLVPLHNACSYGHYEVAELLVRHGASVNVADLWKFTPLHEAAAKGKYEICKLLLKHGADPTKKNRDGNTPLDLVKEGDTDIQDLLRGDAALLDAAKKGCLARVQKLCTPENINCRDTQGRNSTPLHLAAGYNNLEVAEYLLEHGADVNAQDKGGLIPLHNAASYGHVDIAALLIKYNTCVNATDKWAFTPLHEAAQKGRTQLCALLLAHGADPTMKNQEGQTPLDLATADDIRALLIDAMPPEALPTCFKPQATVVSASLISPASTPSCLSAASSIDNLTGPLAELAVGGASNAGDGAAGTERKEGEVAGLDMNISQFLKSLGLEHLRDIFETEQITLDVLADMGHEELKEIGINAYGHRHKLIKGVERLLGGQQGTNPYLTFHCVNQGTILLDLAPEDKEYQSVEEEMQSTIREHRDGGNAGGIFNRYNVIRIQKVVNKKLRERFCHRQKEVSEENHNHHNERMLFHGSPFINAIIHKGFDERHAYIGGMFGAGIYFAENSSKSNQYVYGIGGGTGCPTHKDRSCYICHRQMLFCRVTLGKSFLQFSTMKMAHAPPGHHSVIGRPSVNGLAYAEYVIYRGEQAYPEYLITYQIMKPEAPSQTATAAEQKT

[2] = target: Protein mono-ADP-ribosyltransferase PARP4 (Homo sapiens, UniProt Q9UKK3)

IC50 [1]: 570 nM
IC50 [2]: 330 nM
Compound: NC(=O)c1cccc2cn(-c3ccc([C@@H]4CCCNC4)cc3)nc12 [NIRAPARIB]
